AlphaSeq binding of Ab-91 heavy chain variants to a spike HR2 peptide

Target: peptide PDVDLGDISGINAS, taken from heptad repeat 2 (HR2) of SARS-CoV-2 spike.

Parent scFv Ab-91: VL joined to VH by three GGGGS repeats. Changes lie in the heavy chain CDRs alone.
VL: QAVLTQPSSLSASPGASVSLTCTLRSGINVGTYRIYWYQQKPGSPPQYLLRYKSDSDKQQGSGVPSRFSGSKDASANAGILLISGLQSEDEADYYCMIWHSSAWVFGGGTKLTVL
VH: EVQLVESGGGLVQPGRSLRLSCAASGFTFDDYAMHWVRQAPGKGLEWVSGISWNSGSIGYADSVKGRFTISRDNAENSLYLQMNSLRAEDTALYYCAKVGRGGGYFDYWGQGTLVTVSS

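The starting antibody came from a phage panning campaign against this peptide. Variants in AAYL51 differ from the parent at up to three CDR positions; double and triple changes were sampled at random. The scFvs were displayed on barcoded MATa yeast, the peptide on MATalpha yeast. The frequency of each diploid, read from paired DNA barcodes, reflects how well the two displayed proteins bind. Each replicate has its own calibration line, from reference interactions of the BCL2 family. Mating was done three times.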

The parent's heavy chain CDRs are GFTFDDYAMH, GISWNSGSIGYADSVK, VGRGGGYFDY; each variant's own CDRs replace them letter for letter. Values are log10 of the apparent Kd in nM; lower means stronger binding. A pair that was not seen in that replicate is written "nd"; this usually means weak binding, but a binder can also be missed. For reference, the parent read 1.86 as the reference entry and 0.88 as a member of this library. Three control strains display no target. For library AAYL51, 21% of the pairings with them gave a signal, with a median of 4.54 and one signal in twenty below 3.26, so weak values seen in few replicates may be background. Also given: how often the same scFv was detected with the empty control strains.

With GFTFDDYAMH | GISWNSGSIGYNDSVM | VGLGGGYFDY the result was 5.61, 4.77, 5.14 (controls 4 of 9).
With GFTFDDYAMH | RISMNSGSIYYADSVK | VGRGGGYFDY the result was 5.06, nd, nd (controls 1 of 9).
With GKTFYDYAMH | GISWNSGSIGYADSVK | PGRGGGYFDY the result was 2.47, 2.37, 2.41 (controls 3 of 9).
With GFTFDDYAMH | GISWNSGSVGYADSVK | VSRGGGYFTY the result was nd, nd, nd (controls 2 of 9).
With GFTFDDYVMH | GISWNSGSIGCADSVK | VGRGGGYFYY the result was nd, 4.49, 3.95 (controls 2 of 9).
With PFTFDDYTMH | GISWNSGSIGYADLVK | VGRGGGYFDY the result was 4.47, 4.44, 4.63 (controls 8 of 9).
With GFTFDDYAMH | GISWNSGKIGYAFSVK | VGRGGGCFDY the result was 4.75, 4.50, nd (controls 3 of 9).
With TFTFDDYAMH | GISWNSGSIGYADLVK | VGHGGGYFDY the result was nd, nd, nd (controls 4 of 9).
With AFTFDDYAMH | GISWNSGSIGYRDSVK | VGRGGGYWDY the result was nd, nd, nd (controls 0 of 9).
With GFTFDDYARH | GISWRSESIGYADSVK | VGRGGGYFDY the result was nd, 3.14, nd (controls 1 of 9).
With GFTFDDYAMS | GPSTNSGSIGYADSVK | VGRGGGYFDY the result was nd, nd, nd (controls 0 of 9).
With GFTFDDYAMH | GISWNSCSIGYADSVK | VGRGPGCFDY the result was 1.82, 1.99, 1.53 (controls 3 of 9).
With GFTFDDYAMH | GISWNSGSIGYAVSVK | VRWGGGYFDY the result was nd, nd, nd (controls 1 of 9).
With GFTFDDYAMH | GISWCSGSIGCADSVK | VGRGGGYFDN the result was nd, nd, nd (controls 1 of 9).
With GFTFGDYAMH | GIPWNSGSIGYADSVV | VGRGGGYFDY the result was 4.03, 5.14, 5.11 (controls 6 of 9).
With GFTFDDYAMH | GISWNSGSIIYADEVK | QGRGGGYFDY the result was 4.58, 3.90, nd (controls 4 of 9).
With GVTFDDTAMH | GISWNSGSIGYADSVK | VGRGGGQFDY the result was 3.66, 3.54, 4.22 (controls 4 of 9).
With GFTFDDYAMH | GISPNSGSIGYADSHK | VGRGGGYFDY the result was 1.13, 1.09, 0.62 (controls 6 of 9).
With GMTFDDYAQH | GISWNSGSIGYADSVK | VGRDGGYFDY the result was nd, 4.06, nd (controls 3 of 9).
With GPTFDDYAMH | GISWNSGSIGYADSRK | FGRGGGYFDY the result was nd, 3.67, 5.46 (controls 6 of 9).
With GFTLDDYCMH | GISWNSGSIGYADQVK | VGRGGGYFDY the result was 4.92, nd, 4.06 (controls 6 of 9).
With GFTFDVYAMH | GISWNSGQIGYADSVK | VGRGGGYGDY the result was nd, nd, nd (controls 0 of 9).
With GFTFDDYAMH | GISWNQGSIGYADSVK | SGRGGDYFDY the result was nd, 4.24, nd (controls 2 of 9).
With GFTFDDYAWH | GISWNSGSIGYHDSVK | VGRGGGYADY the result was nd, nd, nd (controls 0 of 9).
With GFTFDDYACH | GISWNSGSIGYADSVK | VGPGGGYFDY the result was nd, nd, nd (controls 1 of 9).
With GFTFDDYAMH | GISHGSGSIGYADSVK | VGRGGGYFSY the result was nd, nd, nd (controls 1 of 9).
With GGTFDDYAMH | GISWQSGKIGYADSVK | VGRGGGYFDY the result was 5.14, 6.28, 4.62 (controls 3 of 9).
With GFTFDPYAMH | GISWNSGSIGYAMSVK | VGRGFGYFDY the result was nd, 5.38, nd (controls 1 of 9).
With GFTFDDYTMH | GIDWNSGSIGYADSVR | VGRGGGYFDY the result was nd, nd, nd (controls 1 of 9).
With GFTFDDYAMY | GISWNSGSIGYVDSVK | VGRGGGYFDY the result was 3.79, 3.62, 4.75 (controls 4 of 9).
With FFTFDDYAMH | GISWNSGSIGYADSHK | VGRGGVYFDY the result was nd, 4.89, nd (controls 3 of 9).

The closing 2 entries, repeated:

CDR-H1,CDR-H2,CDR-H3,"log10 Kd, replicates",empty controls
GFTFDDYAMY,GISWNSGSIGYVDSVK,VGRGGGYFDY,"3.79, 3.62, 4.75",4 of 9
FFTFDDYAMH,GISWNSGSIGYADSHK,VGRGGVYFDY,"nd, 4.89, nd",3 of 9

Values reported by Engelhart et al. 2022, doi:10.1038/s41597-022-01779-4 (FLAb copy).